Molecular target: Phosphatidylinositol 4,5-bisphosphate 3-kinase catalytic subunit beta isoform (Homo sapiens, UniProt P42338)
Type: cell-based, Sf9

Sequences of proteins named here, by UniProt entry; tags and fusion partners are left off. A change or cut given only in a name is not applied to a line headed by its entry.
UniProt P42338: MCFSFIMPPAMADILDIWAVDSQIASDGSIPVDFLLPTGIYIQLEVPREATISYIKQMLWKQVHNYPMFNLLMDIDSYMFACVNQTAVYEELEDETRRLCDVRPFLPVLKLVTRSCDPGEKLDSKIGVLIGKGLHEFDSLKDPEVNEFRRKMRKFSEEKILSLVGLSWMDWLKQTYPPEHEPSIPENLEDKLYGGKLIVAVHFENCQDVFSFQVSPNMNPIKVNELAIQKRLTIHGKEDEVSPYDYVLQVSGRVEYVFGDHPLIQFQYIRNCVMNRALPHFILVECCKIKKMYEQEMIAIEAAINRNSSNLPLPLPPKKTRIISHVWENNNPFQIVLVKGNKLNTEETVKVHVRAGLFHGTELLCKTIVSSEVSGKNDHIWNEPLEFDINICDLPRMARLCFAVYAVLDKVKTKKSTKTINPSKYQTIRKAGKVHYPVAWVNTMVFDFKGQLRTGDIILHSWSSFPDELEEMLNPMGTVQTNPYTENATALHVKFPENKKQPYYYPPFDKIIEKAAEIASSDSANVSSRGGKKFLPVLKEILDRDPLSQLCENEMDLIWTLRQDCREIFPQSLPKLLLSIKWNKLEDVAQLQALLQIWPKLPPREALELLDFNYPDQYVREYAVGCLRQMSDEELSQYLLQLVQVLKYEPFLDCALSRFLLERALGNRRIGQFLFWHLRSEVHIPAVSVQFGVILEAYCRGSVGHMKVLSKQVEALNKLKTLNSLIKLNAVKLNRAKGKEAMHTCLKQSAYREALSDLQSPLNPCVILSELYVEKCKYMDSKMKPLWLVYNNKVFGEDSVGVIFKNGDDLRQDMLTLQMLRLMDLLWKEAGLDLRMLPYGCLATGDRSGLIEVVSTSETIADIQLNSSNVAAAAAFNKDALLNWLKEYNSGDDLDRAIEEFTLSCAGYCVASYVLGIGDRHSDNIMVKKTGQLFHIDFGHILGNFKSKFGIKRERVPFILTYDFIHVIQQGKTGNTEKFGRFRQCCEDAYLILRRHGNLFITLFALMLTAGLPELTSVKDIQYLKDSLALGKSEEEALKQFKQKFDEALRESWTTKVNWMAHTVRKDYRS

## Cc1cc(C(C)Nc2ccccc2)c2nc(N3CCOCC3)cc(=O)n2c1 (racemic)
  IC50: 4 nM

Source: ChEMBL document CHEMBL3585342, “Exploring the isoform selectivity of TGX-221 related pyrido[1,2-a]pyrimidinone-based Class IA PI 3-kinase inhibitors: synthesis, biological evaluation and molecular modelling” (Bioorg Med Chem, 2015)
